From US11773129B2, “Methods of preventing or treating atherosclerosis with inhibitors of specific isoenzymes of human neuraminidase” (THE GOVERNORS OF THE UNIVERSITY OF ALBERTA, priority 2017, dated 2023)

How the values were obtained:
NEU4 [1] = target: T1, NEU4 (Homo sapiens, UniProt Q8WWR8)
T1 sequence (Q8WWR8 1-484): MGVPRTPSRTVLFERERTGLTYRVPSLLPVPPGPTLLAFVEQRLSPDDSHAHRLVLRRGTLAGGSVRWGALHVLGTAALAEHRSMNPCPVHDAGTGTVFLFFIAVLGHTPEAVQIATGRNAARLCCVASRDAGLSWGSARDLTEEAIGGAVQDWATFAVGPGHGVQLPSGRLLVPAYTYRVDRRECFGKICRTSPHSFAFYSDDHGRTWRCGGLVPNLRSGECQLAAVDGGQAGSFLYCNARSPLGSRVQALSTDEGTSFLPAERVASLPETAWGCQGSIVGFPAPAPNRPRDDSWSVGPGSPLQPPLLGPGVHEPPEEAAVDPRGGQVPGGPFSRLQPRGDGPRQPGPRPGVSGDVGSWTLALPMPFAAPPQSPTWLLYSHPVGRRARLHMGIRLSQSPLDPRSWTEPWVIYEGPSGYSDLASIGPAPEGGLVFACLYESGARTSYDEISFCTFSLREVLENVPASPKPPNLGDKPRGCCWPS

NEU4 [2] = target: T1, NEU4; experiment: Inhibition of GM3 cleavage, NEU4; conditions: read-out: IC50 NEU4, inhibition of GM3 cleavage; GM3 500 μM, pH 4.5
NEU1 = target: T2, NEU1 (Homo sapiens, UniProt Q99519); experiment: IC50 inhibition assay using 4MU-NANA as the substrate, NEU1; type: biochemical
T2 construct: made in house; host or cells: HEK293 (lentiviral transduction), crude lysate

Compound	Ki (NEU4 [1])	IC50 (NEU4 [2])	IC50 (NEU1)
CC(=O)N[C@H]1[C@H]([C@H](O)[C@H](O)CO)OC(C(=O)O)=C[C@@H]1O [DANA, 2-deoxy-2,3-didehydro-N-acetylneuraminic acid, reference compound]	5.8 ± 0.6 µM	26 ± 8 µM	–
CC(=O)N[C@H]1[C@H]([C@H](O)[C@H](O)CO)OC(C(=O)O)=C[C@@H]1NC(=N)N [compound 6, zanamivir, reference compound]	26 ± 4 µM	–	–
CC(=O)N[C@@H]1C(O)C=C(C(=O)O)OC1C(O)C(O)CNC(=O)C(C)C (stereo partly drawn) [compound 53, 5-Acetamido-9-isobutyramido-2,6-anhydro-3,5-dideoxy-D-glycero-D-galacto-non-2-enonic acid]	–	–	250 ± 60 µM
